Results on four molecules are retold here after ChEMBL document CHEMBL3638554 (2015).

Amino acid sequences for entries named in this document (tags omitted). A change or cut given only in a name is not applied to a line headed by its entry.
UniProt Q99558: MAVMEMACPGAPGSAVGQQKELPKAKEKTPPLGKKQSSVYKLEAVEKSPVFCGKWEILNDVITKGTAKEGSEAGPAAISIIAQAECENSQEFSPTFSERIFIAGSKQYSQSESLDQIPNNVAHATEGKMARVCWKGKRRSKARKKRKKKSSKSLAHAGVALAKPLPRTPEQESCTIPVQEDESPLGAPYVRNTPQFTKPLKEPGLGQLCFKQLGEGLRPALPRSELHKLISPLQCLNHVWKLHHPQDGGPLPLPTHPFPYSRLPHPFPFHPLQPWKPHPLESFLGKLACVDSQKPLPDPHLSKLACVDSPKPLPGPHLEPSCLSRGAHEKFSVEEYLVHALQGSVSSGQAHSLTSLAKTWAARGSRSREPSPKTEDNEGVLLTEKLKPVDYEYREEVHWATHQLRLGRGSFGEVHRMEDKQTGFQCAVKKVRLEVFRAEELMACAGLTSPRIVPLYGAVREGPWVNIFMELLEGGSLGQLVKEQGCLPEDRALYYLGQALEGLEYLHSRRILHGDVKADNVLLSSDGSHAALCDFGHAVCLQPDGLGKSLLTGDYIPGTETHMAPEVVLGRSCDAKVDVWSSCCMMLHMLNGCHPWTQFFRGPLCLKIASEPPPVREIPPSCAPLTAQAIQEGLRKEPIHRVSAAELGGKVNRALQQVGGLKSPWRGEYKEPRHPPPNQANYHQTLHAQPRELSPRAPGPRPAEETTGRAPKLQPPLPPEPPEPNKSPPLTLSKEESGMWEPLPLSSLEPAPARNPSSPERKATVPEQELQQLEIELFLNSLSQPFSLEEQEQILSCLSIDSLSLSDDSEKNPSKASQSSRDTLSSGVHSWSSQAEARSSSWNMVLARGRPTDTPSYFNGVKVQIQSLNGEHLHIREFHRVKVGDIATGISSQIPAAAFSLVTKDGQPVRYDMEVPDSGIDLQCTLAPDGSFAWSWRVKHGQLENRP

pKi: −log10 of the molar value. Values joined by “and” are separate entries in the source; they are usually repeats but may differ in a detail not shown here. Identical values can stand only once.

The target in the assay is Mitogen-activated protein kinase kinase kinase 14 (Homo sapiens, UniProt Q99558). The experiment in a line: Inhibition Assay: The ability of the nuclear factor-kappa B (NF-kB)-inducing kinase (NIK) to catalyze the hydrolysis of adenosine-5'-triphosphate (ATP) was monitored using the Transcreener ADP (adenosine-5'-diphosphate) assay (BellBrook Labs). Purified NIK (0.2-1 nM) derived from a baculovirus-infected insect cell expression system was incubated with test compounds for 1-3.5 hours in 50 mM 2-[4-(2-hydroxyethyl)piperazin-1-yl]ethanesulfonic acid buffer (pH 7.2) containing 10 mM MgCl2, 2 mM dithiothreitol, 10 uM ATP, 0.01% Triton X-100, 0.1% gamma-globulins from bovine blood, 1% dimethylsulfoxide (DMSO), 12 ug/mL ADP antibody and 4 nM ADP-AlexaFluor.RTM. […] Reactions were quenched by the addition of 20 mM 2,2',2'',2'''-(ethane-1,2-diyldinitrilo)tetraacetic acid and 0.01% Brij 35. The tracer bound to the antibody was displaced by the ADP generated during the NIK reaction, which causes a decrease in fluorescence polarization that was measured by laser excitation. (In fluorescence polarisation assays a small probe gives low polarisation when free and higher when bound to something large.)
As a reminder, the pKi is the negative decadic logarithm of the Ki, by convention in mol/L. Lower therefore signals a large Ki. As for `Cc1nc([C@](C)(O)C#Cc2ccc3c(c2)-c2nc(C(N)=O)sc2[C@H](O)CO3)no1`, the negative logarithm of the Ki (pKi) is 8.00 and 7.25.

On to `Cc1nc([C@](C)(O)C#Cc2ccc3c(c2)-c2nc(C(N)=O)sc2[C@@H](O)CO3)no1`, for which the pKi was 8.00 and 7.25.

Take `CN1CC[C@@](O)(C#Cc2ccc3c(c2)-c2nc(C(N)=O)sc2[C@](C)(O)CO3)C1=O`: the pKi is 8.40 and 9.15.

With `CO[C@@H]1COc2ccc(C#C[C@]3(O)CCN(C)C3=O)cc2-c2nc(C(N)=O)sc21`, the pKi was 8.52 and 9.05.
